Experimental data reported in article PMC5701133, “Structural Mechanism of the Oxygenase JMJD6 Recognition by the Extraterminal (ET) Domain of BRD4” (Scientific Reports, 2017).

How the values were obtained:
[1] = molecular target: T1, BRD4 ET domain (Homo sapiens, UniProt O60885); details: ITC, NSD3 peptide; ref [33]; cited from earlier work
T1 construct: His-tag (cleaved yes); made in house; host or cells: Escherichia coli BL21-CodonPlus (pRIL)

[2] = molecular target: T1, BRD4 ET domain; experiment: Isothermal titration calorimetry (ITC) of the ET domain with peptides; assay type: binding; details: 20 °C
[3] = tested on: full-length JMJD6; experiment: Differential scanning fluorimetry (thermal shift) of full-length JMJD6; assay type: binding
[4] = tested on: BRD4 and H4ac interaction; experiment: Co-immunoprecipitation with added nucleic acid: BRD4 binding to H4ac; details: double-transfected HEK293T lysate, different amounts of ssRNA
[5] = tested on: BRD4 and NSD3 interaction; experiment: Co-immunoprecipitation with added nucleic acid: BRD4 binding to NSD3; details: double-transfected HEK293T lysate, increasing ssRNA concentration

Substance: EIKLKITKTIQN [NSD3 peptide, PDB ID 2NCZ]
TΔS (entropy change) [1]: 8.0 kcal/mol
ΔH (enthalpy change) [1]: 2.85 kcal/mol

ITC binding affinity (Kd) ([2]; PBS with 0.5 mM dithiothreitol pH 7.4, protein 0.5 mM in cell, peptide 7.5 mM in syringe, one set of sites): No Binding
Substance: KWTLERAKRKYRN [JMJD6 L90A]
binding to the ET domain by ITC (in words) ([2]; PBS with 0.5 mM dithiothreitol pH 7.4, versus wild type JMJD6 peptide): nearly abolish the binding to the ET domain

Substance: ssDNA: 5′-TTTCTAGATCAGGAGCTGTCGGAAGCTATCC-3′; 31 nt (DNA, backbone not given here)
JMJD6 interaction by thermal shift (in words) ([3]; nucleic acid 1 μM, JMJD6 1 μM, PBS pH 7.4, with or without ET domain for dsRNA): does not bind

Substance: ssRNA: 5′-AUACGAUGCUUUACGGUGCUAUUUUGU-3′; 27 nt (RNA, backbone not given here)
BRD4 binding to H4ac on addition of ssRNA (in words) [4]: remains unchanged
BRD4 binding to NSD3 on addition of ssRNA (in words) [5]: appears to be weaker when ssRNA concentration increases
melting temperature Tm of JMJD6 with ssRNA ([3]; 1 μM ssRNA, 1 μM JMJD6, PBS pH 7.4, SYPRO Orange, mean, n = 3): 40.1 °C
decrease in JMJD6 melting temperature ([3]; 1 μM ssRNA, 1 μM JMJD6, versus free JMJD6): 7.9 °C

One block for each substance: values may come before it.
